In general, Ki refers to a dissociation constant, usually derived from enzyme kinetics or from competition with a known ligand.

Sequences of proteins named here, by UniProt entry; tags and fusion partners are left off.
UniProt P35372, whole entry: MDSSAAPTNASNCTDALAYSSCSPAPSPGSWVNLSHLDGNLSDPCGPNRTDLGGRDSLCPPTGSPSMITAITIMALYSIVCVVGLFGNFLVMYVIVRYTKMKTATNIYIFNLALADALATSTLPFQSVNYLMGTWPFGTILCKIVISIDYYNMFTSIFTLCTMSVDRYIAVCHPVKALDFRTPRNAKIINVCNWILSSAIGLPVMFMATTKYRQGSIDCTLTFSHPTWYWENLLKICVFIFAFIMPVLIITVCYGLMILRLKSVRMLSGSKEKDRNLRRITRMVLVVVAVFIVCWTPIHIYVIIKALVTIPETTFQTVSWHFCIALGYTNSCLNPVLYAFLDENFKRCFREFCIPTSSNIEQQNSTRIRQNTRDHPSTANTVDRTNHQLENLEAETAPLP

For the experiment, the target named is Mu-type opioid receptor (Homo sapiens, UniProt P35372).

`Oc1ccc2c(c1)[C@@]13CCCC[C@H]1C(C2)N(CC1CCC1)CC3` [MCL-101] had a Ki of 230 nM.

The record behind these values is BindingDB's records for doi:10.1124/jpet.105.084343 (University of Rochester, 2005).
